Experiments:
[1] = molecular target: human GLP-1 receptor (hGLP-1R) (Homo sapiens, UniProt P43220); assay: cAMP production (HTRF) in CHO cells expressing hGLP-1R; format: cell-based; design: expressed in transfected cells; conditions: read-out: hGLP-1R EC50, 0.1% BSA, geometric mean
Experimental: (§1) Cells were re-suspended in assay buffer at a batch-dependent optimized concentration (typically hGLP-1R cells at 1×10^5 cells/mL, hGCGR cells at 2×10^5 cells/mL).
(§2) Cells were added to the assay plate using a multidrop dispenser and incubated at room temperature for 30 minutes before measuring the cAMP level using a cAMP dynamic 2 homogeneous time resolved Fluorescence (HTRF) kit (Cisbio Bioassays #62AM4PEJ) following the two-step protocol as per manufacturer's recommendations. In brief, anti-cAMP cryptate (donor fluorophore) and cAMP-d2 (acceptor fluorophore) were made up separately by diluting each 1 in 20 in conjugate and lysis buffer provided in the kit. Anti-CAMP cryptate was added to all wells of the assay plate, followed by cAMP-d2 added to all wells except non-specific binding (NSB) wells (to which conjugate and lysis buffer was added).
(§3) Data was transformed to % Delta F as described in the manufacturer's guidelines and analyzed by 4-parameter logistic fit to determine EC50 values.

The chains behind the UniProt entries cited, without tags or fusion partners. Residues count along the entry.
UniProt P43220, 24-463: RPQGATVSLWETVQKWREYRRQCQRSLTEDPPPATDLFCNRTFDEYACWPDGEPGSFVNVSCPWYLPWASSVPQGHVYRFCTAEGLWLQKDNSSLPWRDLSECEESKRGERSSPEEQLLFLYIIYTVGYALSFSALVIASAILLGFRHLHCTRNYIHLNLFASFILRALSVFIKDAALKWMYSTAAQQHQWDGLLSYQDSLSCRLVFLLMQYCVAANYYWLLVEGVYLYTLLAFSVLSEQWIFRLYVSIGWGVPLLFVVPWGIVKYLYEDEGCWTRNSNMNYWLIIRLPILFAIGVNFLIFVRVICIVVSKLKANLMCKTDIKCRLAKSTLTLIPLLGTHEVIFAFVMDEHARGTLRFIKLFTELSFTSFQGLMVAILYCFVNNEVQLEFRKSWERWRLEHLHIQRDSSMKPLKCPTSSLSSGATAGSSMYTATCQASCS
UniProt P47871, 26-477: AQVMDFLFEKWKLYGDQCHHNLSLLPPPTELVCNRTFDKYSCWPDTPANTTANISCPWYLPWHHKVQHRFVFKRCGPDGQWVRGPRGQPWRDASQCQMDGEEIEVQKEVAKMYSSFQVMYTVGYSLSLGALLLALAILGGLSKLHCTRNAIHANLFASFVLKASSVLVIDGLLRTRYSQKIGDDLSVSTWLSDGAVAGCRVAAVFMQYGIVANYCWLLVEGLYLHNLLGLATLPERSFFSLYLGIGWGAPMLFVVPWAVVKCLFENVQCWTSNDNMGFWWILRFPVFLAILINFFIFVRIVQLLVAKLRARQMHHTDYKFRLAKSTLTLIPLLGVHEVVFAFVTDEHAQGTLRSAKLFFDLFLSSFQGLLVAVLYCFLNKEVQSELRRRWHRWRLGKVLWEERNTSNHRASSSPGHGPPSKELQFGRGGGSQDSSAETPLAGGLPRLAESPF

[2] = molecular target: human glucagon receptor (hGCGR) (Homo sapiens, UniProt P47871); assay: cAMP production (HTRF) in CHO cells expressing hGCGR; format: cell-based; design: expressed in transfected cells; conditions: read-out: hGluc-R EC50, 0.1% BSA, geometric mean
Experimental: as §1, §2, §3

Work on “H(Aib)HGS(αMePhe)TSDK(O20C-O2OC-γE-γE-C20diacid)10SK(αMePhe)LDSRAAQD(αMePhe)VQ(Aib)IANT-amide [Peptide 391]” yielded an EC50 [1] of 0.000893 µM and an EC50 [2] of 0.0222 µM.

From patent US20250353891A1 (MEDIMMUNE LIMITED, priority 2022, published 2025)
